Article PMC2634297 (Bioorganic & medicinal chemistry letters, 2008)

Protein sequences, listed by entry. Tags and fused reporters are not part of them. Lines headed by an entry give the natural chain unless they say otherwise; changes in a name come on top.
UniProt Q99LR1: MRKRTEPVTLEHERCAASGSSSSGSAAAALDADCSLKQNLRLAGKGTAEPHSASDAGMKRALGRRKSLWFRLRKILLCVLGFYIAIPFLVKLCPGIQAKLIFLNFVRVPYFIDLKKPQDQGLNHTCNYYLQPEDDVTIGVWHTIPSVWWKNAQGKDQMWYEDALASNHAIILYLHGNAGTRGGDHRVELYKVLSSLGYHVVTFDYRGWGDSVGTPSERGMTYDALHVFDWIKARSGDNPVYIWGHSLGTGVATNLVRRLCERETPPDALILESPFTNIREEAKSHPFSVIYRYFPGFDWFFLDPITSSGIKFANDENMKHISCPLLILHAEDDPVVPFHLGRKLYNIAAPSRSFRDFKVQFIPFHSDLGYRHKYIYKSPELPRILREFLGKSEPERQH

Target: ABHD12 (Mus musculus, UniProt Q99LR1)

CCCCCCCCCCC[C@@H](C[C@@H]1OC(=O)[C@H]1CCCCCC)OC(=O)[C@H](CC(C)C)NC=O [THL, tetrahydrolipstatin]
inhibition of recombinant ABHD12 (in words): selectively blocked
